Assay results reported in ChEMBL document CHEMBL1125307, “Novel 1,2,4-oxadiazoles and 1,2,4-thiadiazoles as dual 5-lipoxygenase and cyclooxygenase inhibitors” (J Med Chem, 1992).
pIC50: −log10 of the molar value.

Target: T1, Polyunsaturated fatty acid 5-lipoxygenase (Rattus norvegicus, UniProt P12527)
T1 sequence (P12527 whole entry): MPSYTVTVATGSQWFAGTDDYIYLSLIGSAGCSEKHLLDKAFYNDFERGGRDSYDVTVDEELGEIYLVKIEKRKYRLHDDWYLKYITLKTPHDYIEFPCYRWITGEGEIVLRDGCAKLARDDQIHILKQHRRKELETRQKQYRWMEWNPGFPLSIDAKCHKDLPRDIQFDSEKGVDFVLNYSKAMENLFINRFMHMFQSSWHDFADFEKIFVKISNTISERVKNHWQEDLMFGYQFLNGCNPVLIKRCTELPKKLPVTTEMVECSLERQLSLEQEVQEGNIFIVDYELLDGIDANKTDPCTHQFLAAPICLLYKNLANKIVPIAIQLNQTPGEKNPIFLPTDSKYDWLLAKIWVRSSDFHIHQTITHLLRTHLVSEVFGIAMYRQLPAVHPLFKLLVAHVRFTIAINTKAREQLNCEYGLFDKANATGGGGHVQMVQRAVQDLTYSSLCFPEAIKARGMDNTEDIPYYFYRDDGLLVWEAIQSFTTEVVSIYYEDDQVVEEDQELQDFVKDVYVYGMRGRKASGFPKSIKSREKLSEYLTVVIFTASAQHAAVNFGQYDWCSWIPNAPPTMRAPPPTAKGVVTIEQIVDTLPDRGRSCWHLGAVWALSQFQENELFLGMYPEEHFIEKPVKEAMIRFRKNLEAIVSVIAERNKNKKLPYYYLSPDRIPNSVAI
Assay: Evaluated in vitro for its inhibitory activity against 5-lipoxygenase
In short: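 RBL-1 cells grown in MEM + 12% FBS, washed in PBS pH 7.4, resuspended at 2×10^6 cells/mL in PBS with 1.0 mM calcium. Preincubated 10 min at room temperature with compound in DMSO, then stimulated with A23187 (5 μM) 7 min at 37 °C; stopped on ice. Supernatant LTB4 by radioimmunoassay.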

Cc1nc(-c2cc(C(C)(C)C)c(O)c(C(C)(C)C)c2)no1
pIC50: 5.64
